One compound from article PMC6270001, “Synthesis and Antiviral Activity of N-Phenylbenzamide Derivatives, a Novel Class of Enterovirus 71 Inhibitors” (Molecules, 2013) can be followed below.

Common to all, as to assay type: cell-based, Enterovirus 71
Test [1] deals with EV 71 strain BrCr (genotype A). Nature of the test: Anti EV 71 activity assay (CPE, Reed & Muench) in Vero cells, strain BrCr. The note with it: selectivity index TC50/IC50, strain BrCr; "-" stands for no antiviral selectivity. The procedure:
(§1) The EV 71 was divided into three genotypes A, B and C based on nucleotide sequence comparisons, and genotypes B and C were subdivided into B1-B5 and C1-C5 [6, 10]. Genotype C is the most common genotype found in mainland China, especially the C4 subgenotype. Consequently, the intermediate compounds 1a, 1c and 1e, and the final products 2a–c, 3a–g, and 5a–f were evaluated for their anti-EV 71 activity in Vero cells against genotypes C4 (strains SZ-98 and JS-52-3), C2 (strain H) and A (strain BrCr). […] The IC50 values were calculated by the Reed and Muench method, and the cytotoxicity was monitored by the CPE method.
(§2) Vero cells were purchased from the American Type Culture Collection and cultured in Minimum Essential Medium (MEM) supplemented with 10% Fetal Bovine Serum (FBS) and antibiotics (100 U/mL penicillin G, 100 μg/mL streptomycin). Enterovirus 71 (EV 71) strain SZ-98 was kindly provided by Dr. Qi Jin, Institute of Pathogen Biology, Chinese Academy of Medical Science and Peking Union Medical School. Enterovirus 71 (EV 71) strain BrCr (VR-1775) was purchased from the American Type Culture Collection. Enterovirus 71 (EV 71) strain JS-52-3 was kindly provided by Dr. Xiang-zhong Ye, Beijing Wantai Biological Pharmacy Enterprise Co., Ltd. All Enterovirus 71 strains were propagated in Vero cells. […]

The subject of test [2] is EV 71 strain SZ-98 (genotype C4). Put plainly: Anti EV 71 activity assay (CPE, Reed & Muench) in Vero cells, strain SZ-98. The note with it: selectivity index TC50/IC50, strain SZ-98; "-" stands for no antiviral selectivity. As for the experimental part:
as §1, §2

For test [3], the system named is EV 71 strains SZ-98, JS-52-3, H, BrCr. Put plainly: Anti EV 71 activity assay in Vero cells, summary over the four strains tested. The note with it: TC50/IC50, range over the EV 71 strains tested. As for the experimental part: as §1, §2
Test [4] has as its system EV 71 strain JS-52-3 (genotype C4). Nature of the test: Anti EV 71 activity assay (CPE, Reed & Muench) in Vero cells, strain JS-52-3. The note with it: selectivity index TC50/IC50, strain JS-52-3; "-" stands for no antiviral selectivity. The procedure:
as §1, §2

For test [5], the system named is EV 71 strain H (genotype C2). Put plainly: Anti EV 71 activity assay (CPE, Reed & Muench) in Vero cells, strain H. To be noted: selectivity index TC50/IC50, strain H; "-" stands for no antiviral selectivity. The procedure:
as §1, §2

Regarding `CCOC(=O)c1ccc(OCCC2CCN(c3ccc(C)nn3)CC2)cc1` [Pirodavir, pirodavir, reference compound], the “SI BrCr” value in test [1] was 30. Also, the “SI SZ-98” value in test [2] worked out at 25. In test [3], the “selectivity index (SI) values (range over strains)” value is reported as 25–52. Besides, in test [4], the “SI JS-52-3” value was found to be 30. Besides, the “SI H” value in test [5] was found to be 52.
